Results as given in PMC10024865 (Journal of medicinal chemistry, 2022).

Test system: 60 human cancerous cell lines
Assay: NCI-60 panel
Format: cell-based

In the case of `N=c1c2c(-c3ccccc3)c(-c3ccccc3)n(Cc3ccccc3)c2ncn1CCCO` [Compound 5a, 3-(7-Benzyl-4-imino-5,6-diphenyl-4,7-dihydro-3H-pyrrolo[2,3-d]pyrimidin-3-yl)propan-1-ol], the “effect at the highest concentration” value is reported as “cell death in all cell lines”.
